{"sequences": {"note": "Chains of the proteins cited; added tags and fusions are not shown.", "UniProt Q61143, whole entry": "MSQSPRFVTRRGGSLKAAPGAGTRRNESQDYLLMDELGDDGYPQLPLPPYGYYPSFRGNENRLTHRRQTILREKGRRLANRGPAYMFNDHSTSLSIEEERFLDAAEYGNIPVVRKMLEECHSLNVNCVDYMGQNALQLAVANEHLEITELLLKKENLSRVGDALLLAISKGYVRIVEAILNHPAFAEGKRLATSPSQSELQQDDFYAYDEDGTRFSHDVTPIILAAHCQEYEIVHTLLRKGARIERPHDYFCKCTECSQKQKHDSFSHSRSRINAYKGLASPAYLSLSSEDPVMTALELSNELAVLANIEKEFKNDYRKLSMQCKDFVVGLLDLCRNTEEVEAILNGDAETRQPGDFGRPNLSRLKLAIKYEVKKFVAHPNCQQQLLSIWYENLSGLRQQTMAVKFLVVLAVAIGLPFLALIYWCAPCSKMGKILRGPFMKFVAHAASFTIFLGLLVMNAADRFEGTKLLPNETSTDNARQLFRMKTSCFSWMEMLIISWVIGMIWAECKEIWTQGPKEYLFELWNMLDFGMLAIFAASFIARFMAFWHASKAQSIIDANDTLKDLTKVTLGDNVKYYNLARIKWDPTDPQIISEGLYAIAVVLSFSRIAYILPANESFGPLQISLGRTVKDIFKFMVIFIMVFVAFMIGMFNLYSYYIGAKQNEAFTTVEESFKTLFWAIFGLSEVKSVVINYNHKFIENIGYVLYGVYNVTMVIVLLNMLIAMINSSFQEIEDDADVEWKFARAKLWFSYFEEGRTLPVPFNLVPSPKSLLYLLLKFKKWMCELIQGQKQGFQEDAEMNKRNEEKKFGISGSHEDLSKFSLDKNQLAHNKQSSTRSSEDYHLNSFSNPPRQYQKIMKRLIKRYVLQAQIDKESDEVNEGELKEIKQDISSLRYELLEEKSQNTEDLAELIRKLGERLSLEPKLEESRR"}, "source": "PubChem BioAssay AID488960", "about": "(Johns Hopkins Ion Channel Center, 2010)", "note": "This is a selection; strong and weak results do not stand in their true shares. Activity calls are given as the source filed them.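 The calls were made as follows: active = fluorescence ratio falls more than 5 SD below the full-stimulation control mean, in both duplicate runs; inactive = the rest.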"}
{"biological_target": "Short transient receptor potential channel 6 (Mus musculus) (UniProt Q61143)", "assay": "blockers of TRPC6 cation channel activity – HEK293 cells, membrane potential dye, duplicate, confirmation (AID 488960);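 also: integrated fluorescence ratio of peak minus minimum over baseline after agonist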", "conditions": "ACh-evoked depolarization, at 10 µM, stronger effect = higher value"}
{"smiles": "CCN(CC)CCCOC(=O)C(O)(c1ccccc1)c1ccccc1", "inhibition": "active: 98.5%"}
{"smiles": "CCN(CC)CCCOC(=O)C(O)(c1ccccc1)C1CCCCC1", "note": "(configuration not stated)", "inhibition": "active: 91.9%"}
{"smiles": "CN(C)CCOC(=O)C(O)(c1ccccc1)C1CCCCC1", "note": "(configuration not stated)", "inhibition": "active: 82.8%"}
{"smiles": "CCOC(=O)c1ccc(NP(C)(=O)Oc2ccc(Cl)cc2)cc1", "note": "(configuration not stated)", "inhibition": "active: 64.3%"}
{"smiles": "O=C(OCCCN1CCCC1)C(O)(c1ccccc1)C1CCCCC1", "note": "(configuration not stated)", "inhibition": "active: 83.3%"}
{"smiles": "CCN(CC)CC(O)COC(=O)C(O)(c1ccccc1)C1CCCCC1", "note": "(configuration not stated)", "inhibition": "active: 95%"}
{"smiles": "CN(C)CCOC(=O)C(O)(c1ccccc1)C1CCCC1", "note": "(configuration not stated)", "inhibition": "active: 90.8%"}
